Earlier results, collected in patent publication US10201537B2 (INFLAMMATORY RESPONSE RESEARCH, INC., priority 2013, dated 2019).
“Also recorded” adds a separate entry of the source.

Conditions: levocetirizine, oral

O=C(O)COCCN1CCN([C@H](c2ccccc2)c2ccc(Cl)cc2)CC1 [Levocetirizine]
time to steady state level (in words): less than two days; also recorded: within two days
